Binding of CDR-mutated scFvs to a peptide of the spike HR2 region

Data: MIT Lincoln Laboratory AlphaSeq set, Li et al. 2023, doi:10.1038/s41467-023-39022-2, as distributed in FLAb.

Binding partner: SARS-CoV-2 spike HR2 peptide, sequence PDVDLGDISGINAS.

Ab-14 is the parent antibody, in scFv form: VH, then a (GGGGS)3 linker, then VL. The light chain is unchanged in all variants.
VH: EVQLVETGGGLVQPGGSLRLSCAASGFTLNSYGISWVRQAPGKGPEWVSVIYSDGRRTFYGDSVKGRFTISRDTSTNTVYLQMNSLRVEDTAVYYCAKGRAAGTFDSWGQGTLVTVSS
VL: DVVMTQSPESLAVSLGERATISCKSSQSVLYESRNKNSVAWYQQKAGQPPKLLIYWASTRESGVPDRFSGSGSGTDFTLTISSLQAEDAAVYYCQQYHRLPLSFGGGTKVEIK

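This is the validation round: designs drawn from the data on random variants, tested in the same kind of assay. Their group label is 14H_GPLM_Gen (GPLM: also part of the Gaussian process libraries; Gen: genetic algorithm; a sequence that several methods proposed may carry one label only). The assay is AlphaSeq: two haploid yeast populations carry antibody and antigen on their surface. Binding brings cells together so that they mate, and sequencing counts the barcode pairs among the diploids. A regression on co-assayed BCL2-family reference pairs converts the normalised counts of each replicate to an apparent Kd. Mating was done six times.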

Variants are written as CDR1, CDR2 and CDR3 of the heavy chain (limits as in the source). Parent: GFTLNSYGIS, VIYSDGRRTFYGDSVK, GRAAGTFDS. Affinities are written as log10 Kd with Kd in nM; a lower number is a better binder. Replicates are averaged; those with no signal do not enter the mean. Where no diploid with the target was found in that replicate, the entry reads "n.d.": below detection, most likely a poor binder, though not proof of it. Background: pairings of all heavy chain designs with three empty control strains gave a value in 1% of cases (median 2.08, 5th percentile 0.84). Values in that range, when seen in few replicates, are hard to tell from nonspecific mating. Also given: how often the same scFv was detected with the empty control strains, with their mean in brackets. A sequence measured in both rounds can read differently, since the two assays cover different ranges. The parent sequence was in this pool as ten entries: three were never detected, three once, and four in most replicates, with averages from 0.34 to 2.37. The authors' rule: three or more of the six replicates give a measured affinity, fewer mean a poor binder.

CDR-H1,CDR-H2,CDR-H3,log10 Kd (nM) by replicate,"log10 Kd (nM), mean",control signals
GFTLNDYGIS,VIYSDGRRTFYIDSVK,GRVAGTFDS,1.63 0.92 0.53 0.12 0.54 0.84,0.76,0/18
GFSLNNYGIS,VIYSDGRRTFYGDTVK,GRTAGTFDS,0.64 0.78 0.85 0.95 0.51 1.20,0.82,1/18 (4.14)
GFDLNSYGIS,VIYSDGRRTFYADSVK,GQVAGTFDS,-0.18 -0.06 -0.20 -0.03 -0.39 -0.22,-0.18,3/18 (2.29)
GFSLNSYGIS,VIYSDGRRTFYIDSVK,GQAAGTFDK,2.00 1.92 1.35 2.52 2.78 2.39,2.16,0/18
GFHLNSYGIS,VIYSDGRRTFYADSVK,GHAAGTFDS,0.75 1.05 1.22 0.87 1.29 1.29,1.08,1/18 (2.08)
GFTLNSYGIS,VIYSDGRRTFYSDSVK,GSAAGTFDT,n.d. 0.34 0.63 n.d. 0.90 0.81,0.67,0/18
GFWLNSYGIS,VIYADGRRTFYGDSVK,GKAAGTFDS,1.16 1.03 1.13 0.81 0.49 0.95,0.93,2/18 (1.50)
KFSLNDYGIS,VIYSDGRRTFYGDSVK,GRTAGTFDS,0.24 0.61 0.51 0.16 0.33 0.59,0.41,0/18
GFQLNEYGIS,VIYSDGRRTFYGDSVK,GKAAGTFDS,n.d. 0.89 0.82 0.89 0.31 0.56,0.69,0/18
GFTLNDYGIS,VIYSDGRRTFYIDSVK,GQAAGTFDS,0.23 0.77 0.21 0.53 0.71 0.62,0.51,0/18
GFSLNSYGIS,VIYSDGRRTFYGDSVK,GEAAGTFDL,0.73 0.62 0.34 0.58 0.71 0.35,0.55,1/18 (1.34)
GFSLNSYGIS,VIYSDGRRTFYGDSVK,GRTAGTFDG,n.d. n.d. n.d. n.d. 3.00 n.d.,3.00,0/18
GFELESYGIS,VIYADGRRTFYGDSVK,GRAAGTFDS,-0.12 -0.15 0.06 -0.18 -0.23 -0.06,-0.12,0/18
GFSLNSYGIS,VIYSDGRRTFYGDSVK,GQTAGTFDF,0.59 0.32 0.73 0.58 1.10 0.68,0.67,0/18
GFTLESYGIS,VIYSDGRRTFYADSVK,GRAAGTFDR,0.39 0.81 0.95 -0.16 1.29 0.53,0.64,1/18 (1.38)
GFSLNSYGIS,VIYSDGRRTFYVDNVK,GRTAGTFDS,n.d. 2.10 1.90 1.79 1.29 2.18,1.85,0/18
GFSLNEYGIS,VIYSDGRRTFYGQSVK,GRAAGTFDS,0.63 0.36 0.62 0.40 0.65 1.16,0.64,0/18
GFTLDSYGIS,VIYSDGRRTFYADAVK,GRTAGTFDS,0.64 0.32 -0.06 0.55 0.36 0.86,0.45,0/18
GFSLNEYGIS,VIYSDGRRTFYGDSVK,GLAAGTFDK,0.74 0.38 0.49 -0.21 0.03 0.40,0.30,0/18
GFSLNSYGIS,VIYSDGRRTFYTDSVK,GNAAGTFDS,0.90 0.10 0.00 0.02 -0.10 0.25,0.20,0/18
GFSLNSYGIS,VIYSDGRRTFYKDSVK,GTAAGTFDS,0.87 -0.01 n.d. 0.04 0.04 -0.03,0.18,0/18
GFSLNSYGIS,VIYSDGRRTFYADSVK,GNEAGTFDS,-0.42 -0.20 -1.05 -0.60 -0.96 -0.60,-0.64,0/18
GFSLNSYGIS,VIYSDGRRTFYADAVK,GTAAGTFDS,0.49 0.24 0.28 0.42 0.53 0.51,0.41,0/18
GFSLNEYGIS,VIYSDGMRTFYGDSVK,GRAAGTFDS,n.d. n.d. n.d. n.d. n.d. n.d.,n.d.,0/18
GFWLNDYGIS,VIYSDGRRTFYGDSVK,GRQAGTFDS,1.12 n.d. n.d. 1.72 2.38 2.09,1.82,0/18
GFTLNSYGIS,VIYADGRRTFYGDSVK,GFAAGTFDS,0.24 -0.16 -0.58 -0.33 -0.03 -0.20,-0.18,0/18
GFSLNSYGIS,VIYSDGRRTFYADSVK,GRTAGTFWS,n.d. n.d. n.d. n.d. n.d. n.d.,n.d.,0/18
GFHLNSYGIS,VIYSDGRRTFYSDSVK,GKAAGTFDS,0.97 0.62 0.91 0.79 1.48 1.34,1.02,0/18
GFTLNSYGIS,VIYSDGRRTFYKDSVK,GEAAGTFDS,0.53 0.88 0.72 0.42 0.49 1.33,0.73,1/18 (2.62)
GFVLNSYGIS,VIYSDGRRTFYIDSVK,GKAAGTFDS,n.d. n.d. n.d. n.d. n.d. n.d.,n.d.,0/18
GFTLNDYGIS,VIYSDGRRTFYGDSVK,GRTAGTFDA,-0.05 -0.23 -0.10 -0.40 -0.13 0.19,-0.12,1/18 (3.28)
GFSLNSYGIS,VIYSDGRRTFYADSVK,GRAAGTFDK,-0.40 0.08 -0.22 0.50 -0.24 0.67,0.06,0/18
GFDLNSYGIS,VIYSDGRRTFYGDSVK,GKVAGTFDS,-0.05 -0.12 -0.16 -0.26 0.00 -0.23,-0.14,0/18

4 of these entries, quoted again:

CDR-H1,CDR-H2,CDR-H3,log10 Kd (nM) by replicate,"log10 Kd (nM), mean",control signals
GFSLNSYGIS,VIYSDGRRTFYIDSVK,GQAAGTFDK,2.00 1.92 1.35 2.52 2.78 2.39,2.16,0/18
GFTLNDYGIS,VIYSDGRRTFYIDSVK,GQAAGTFDS,0.23 0.77 0.21 0.53 0.71 0.62,0.51,0/18
GFTLESYGIS,VIYSDGRRTFYADSVK,GRAAGTFDR,0.39 0.81 0.95 -0.16 1.29 0.53,0.64,1/18 (1.38)
GFWLNDYGIS,VIYSDGRRTFYGDSVK,GRQAGTFDS,1.12 n.d. n.d. 1.72 2.38 2.09,1.82,0/18